Target: Sodium-dependent noradrenaline transporter (Homo sapiens, UniProt P23975)
Assay: Inhibition of [3H]norepinephrine uptake at human NET expressed in HEK293 cells
Type: cell-based

Sequences of proteins named here, by UniProt entry; tags and fusion partners are left off.
UniProt P23975, whole entry: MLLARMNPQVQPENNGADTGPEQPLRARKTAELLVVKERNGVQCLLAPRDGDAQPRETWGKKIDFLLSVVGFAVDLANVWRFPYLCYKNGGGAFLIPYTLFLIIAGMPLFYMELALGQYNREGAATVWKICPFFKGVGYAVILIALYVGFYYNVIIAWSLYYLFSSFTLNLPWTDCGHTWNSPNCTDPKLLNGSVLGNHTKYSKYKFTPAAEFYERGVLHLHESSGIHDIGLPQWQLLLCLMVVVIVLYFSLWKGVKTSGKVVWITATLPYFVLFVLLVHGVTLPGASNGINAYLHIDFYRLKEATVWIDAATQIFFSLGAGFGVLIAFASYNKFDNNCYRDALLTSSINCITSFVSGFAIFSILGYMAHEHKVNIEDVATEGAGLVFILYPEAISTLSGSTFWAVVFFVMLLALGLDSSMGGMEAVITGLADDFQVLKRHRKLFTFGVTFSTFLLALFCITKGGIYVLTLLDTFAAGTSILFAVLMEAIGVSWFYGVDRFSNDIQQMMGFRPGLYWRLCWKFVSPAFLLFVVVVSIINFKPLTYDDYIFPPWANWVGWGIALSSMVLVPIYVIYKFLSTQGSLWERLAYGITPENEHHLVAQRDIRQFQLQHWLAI

Compound CC(NC(C)(C)C)C(=O)c1cccc(Cl)c1 (stereo unspecified) [BUPROPION] has an IC50 of 1850 nM.
